# Test system: Bone Morphogenetic Protein 7 (BMP-7) expression in wild type 293S cells
# Test: Induction of BMP-7 expression (Northern blot) in wild type (parental) 293S cells
# Format: cell-based, human
# Conditions: parental 293S cell line; 10^−6M; RNA extracted at 8, 16 and 24 hours; Northern blot with 32P-labeled BMP-7 probe
# Protocol: Methods: 293S and EP2 293S cells were grown in Dulbecco's Modified Egale medium (DMEM, Gibco, BRL; Gaithersburg, Md.). One day prior to treatment with PGE2or a prostaglandin agonist, cells were plated at a density of 1.5×10^6 cells /10 cm dish. […] Cells were harvested and RNA extracted at 8, 16 and 24 hours. Northern blot analysis of total ([…] ) was carried out by probing the blots with ^32P-labeled BMP-7 probe. The blots were normalized for RNA loading by hybridization with ^32P-labeled 18s ribosomal RNA probe. […] Given the known role of BMP-7 in kidney regeneration and the ability of a prostaglandin agonist to induce BMP-7 expression in 293S kidney cells in a time and receptor specific manner indicates a role for a prostaglandin agonist in kidney regeneration.
smiles,measurement,value
"CCCCC[C@H](O)/C=C/[C@H]1[C@H](O)CC(=O)[C@@H]1C/C=C\CCCC(=O)O [PGE2, prostaglandin E2]",induction of the expression of BMP-7,not in the parental cell line

# From patent US6998423B2, “Prevention of loss and restoration of bone mass by certain prostaglandin agonists” (priority 1996, dated 2006)
